Molecular target: isolated polymerase domain (I1780-V2590) of DNA polymerase theta (Polθ) (Homo sapiens (Human), UniProt O75417)
Assay: biochemical

Protein sequences, listed by entry. Tags and fused reporters are not part of them. Residues count along the entry.
UniProt O75417, 1780-2590: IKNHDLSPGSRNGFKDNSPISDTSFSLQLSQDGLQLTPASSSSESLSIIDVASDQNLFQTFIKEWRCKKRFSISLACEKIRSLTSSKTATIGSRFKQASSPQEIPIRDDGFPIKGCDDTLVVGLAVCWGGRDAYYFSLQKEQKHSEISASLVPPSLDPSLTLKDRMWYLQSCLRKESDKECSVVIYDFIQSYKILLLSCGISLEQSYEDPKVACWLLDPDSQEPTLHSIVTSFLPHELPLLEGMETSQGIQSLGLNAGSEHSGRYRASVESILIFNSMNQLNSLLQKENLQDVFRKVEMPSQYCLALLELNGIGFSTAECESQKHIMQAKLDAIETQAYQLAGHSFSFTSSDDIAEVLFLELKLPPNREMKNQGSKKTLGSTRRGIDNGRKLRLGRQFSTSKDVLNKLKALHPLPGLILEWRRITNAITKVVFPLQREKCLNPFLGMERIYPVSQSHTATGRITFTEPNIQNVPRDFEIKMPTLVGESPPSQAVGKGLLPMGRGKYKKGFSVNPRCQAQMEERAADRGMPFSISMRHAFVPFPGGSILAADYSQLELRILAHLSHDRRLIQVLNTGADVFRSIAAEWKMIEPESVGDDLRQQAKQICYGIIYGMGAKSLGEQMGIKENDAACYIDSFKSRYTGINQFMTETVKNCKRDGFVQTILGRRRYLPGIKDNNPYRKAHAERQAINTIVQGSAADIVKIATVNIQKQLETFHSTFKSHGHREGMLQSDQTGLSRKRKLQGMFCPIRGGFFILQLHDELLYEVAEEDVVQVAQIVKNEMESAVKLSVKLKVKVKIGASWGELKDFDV

Structure (SMILES) | IC50 [nM]
CC1(Oc2ncnc3c2nc(-c2ccc(CC(N)=O)cc2Cl)n3CCc2nccs2)CC1 [Example T7, 2-(3-chloro-4-(6-(1-methylcyclopropoxy)-9-(2-(thiazol-2-yl)ethyl)-9H-purin-8-yl)phenyl)acetamide] | 631
Cc1ccnc(Cn2c(-c3ccc(OC[C@@H]4CNC(=O)CO4)cc3Cl)nc3c(OC4(C)CC4)ncnc32)c1 [Example T324, (S)-6-((3-chloro-4-(6-(1-methylcyclopropoxy)-9-((4-methylpyridin-2-yl)methyl)-9H-purin-8-yl)phenoxy)methyl)morpholin-3-one] | 3.98
Cc1ccnc(Cn2c(-c3ccc(C(=O)N4CC(N5CCCC5)C4)cc3Cl)nc3c(OC4(C)CC4)ncnc32)c1 [Example T602, (3-chloro-4-(6-(1-methylcyclopropoxy)-9-((4-methylpyridin-2-yl)methyl)-9H-purin-8-yl)phenyl)(3-(pyrrolidin-1-yl)azetidin-1-yl)methanone] | 2.51
CC1(Oc2ncnc3c2nc(-c2cc(F)cc(OCCC(=O)O)c2Cl)n3Cc2cccc(Cl)c2)CC1 [Example U39, 3-(2-chloro-3-(9-(3-chlorobenzyl)-6-(1-methylcyclopropoxy)-9H-purin-8-yl)-5-fluorophenoxy)propanoic acid] | 3.98
Cc1cc(OCCN2CCN(C)CC2)ncc1-c1nc2cc(OC(C)C)ccc2n1Cc1cccc(Cl)c1 [Example A7, 1-(3-chlorobenzyl)-5-isopropoxy-2-(4-methyl-6-(2-(4-methylpiperazin-1-yl)ethoxy)pyridin-3-yl)-1H-benzo[d]imidazole] | 2
CC1(Oc2ncnc3c2nc(-c2ccc(OCCN4CC(O)C4)cc2Cl)n3Cc2cc(C(F)(F)F)ccn2)CC1 [Example T284, 1-(2-(3-chloro-4-(6-(1-methylcyclopropoxy)-9-((4-(trifluoromethyl)pyridin-2-yl)methyl)-9H-purin-8-yl)phenoxy)ethyl)azetidin-3-ol] | 3.16
CC(CCOc1ccc(-c2nc3c(OC4(C)CC4)ncnc3n2Cc2cc(Cl)ccc2Cl)c(Cl)c1)C(=O)O (racemic) [Example T276, 4-(3-chloro-4-(9-(2,5-dichlorobenzyl)-6-(1-methylcyclopropoxy)-9H-purin-8-yl)phenoxy)-2-methylbutanoic acid] | 5.01
Cc1ccnc(Cn2c(-c3ccc(N4CC5CC4CCN5)cc3Cl)nc3c(OC4(C)CC4)ncnc32)c1 (racemic) [Example T491, 8-(4-(2,6-diazabicyclo[3.2.1]octan-6-yl)-2-chlorophenyl)-6-(1-methylcyclopropoxy)-9-((4-methylpyridin-2-yl)methyl)-9H-purine] | 6.31
CC1(Oc2ncnc3c2nc(-c2ccc(OCCCN4CC(O)C4)cc2Cl)n3Cc2cc(C(F)F)ccn2)CC1 [Example T452, 1-(3-(3-chloro-4-(9-((4-(difluoromethyl)pyridin-2-yl)methyl)-6-(1-methylcyclopropoxy)-9H-purin-8-yl)phenoxy)propyl)azetidin-3-ol] | 7.94
CC1(Oc2ncnc3c2nc(-c2ccc(OCCN4CCNCC4)cc2Cl)n3Cc2ncsc2Cl)CC1 [Example T145, 5-chloro-4-((8-(2-chloro-4-(2-(piperazin-1-yl)ethoxy)phenyl)-6-(1-methylcyclopropoxy)-9H-purin-9-yl)methyl)thiazole] | 39.8
CC(C)Oc1ccc2c(c1)nc(-c1ccc(OC3CCCN(C)CC3)cc1Cl)n2Cc1ccccc1 (single isomer, unassigned) [Example A10, 1-benzyl-2-(2-chloro-4-((1-methylazepan-4-yl)oxy)phenyl)-5-isopropoxy-1H-benzo[d]imidazole] | 2
Cc1ccnc(Cn2c(-c3ccc(CC(=O)NCC(C)(C)O)cc3Cl)nc3c(OC4(C)CC4)ncnc32)c1 [Example T515, 2-(3-chloro-4-(6-(1-methylcyclopropoxy)-9-((4-methylpyridin-2-yl)methyl)-9H-purin-8-yl)phenyl)-N-(2-hydroxy-2-methylpropyl)acetamide] | 7.94

Source: US20250195530A1, “POLQ INHIBITORS” (ASTRAZENECA AB, priority 2022, published 2025)
